# Ab-14 light chain CDR variants: yeast mating affinities

The measurements come from Engelhart et al. 2022 (doi:10.1038/s41597-022-01779-4) through the FLAb antibody collection.

Antigen: PDVDLGDISGINAS, a 14-residue peptide of the SARS-CoV-2 spike HR2 region.

Each scFv is VH, three GGGGS repeats, VL, as in the parent Ab-14, and differs from it in the CDRs of the light chain only.
VH: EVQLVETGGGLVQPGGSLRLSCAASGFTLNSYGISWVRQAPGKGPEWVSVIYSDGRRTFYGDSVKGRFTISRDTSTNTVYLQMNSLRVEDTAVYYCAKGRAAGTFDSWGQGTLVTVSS
VL: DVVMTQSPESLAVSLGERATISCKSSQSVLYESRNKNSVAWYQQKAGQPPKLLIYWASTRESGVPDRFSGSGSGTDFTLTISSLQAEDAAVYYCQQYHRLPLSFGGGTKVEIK

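Phage display of a naive human antibody library on the peptide gave the parent. Library AAYL50 holds single substitutions and randomly drawn double and triple substitutions in the CDRs. AlphaSeq pools MATa yeast showing the antibodies with MATalpha yeast showing the peptide. Binding brings cells together so that they mate, and sequencing counts the barcode pairs among the diploids. Read counts were normalised to the haploid input and turned into Kd by a linear fit to BCL2-family pairs of known affinity, for each replicate. There are three technical replicates.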

Variants are written as CDR1, CDR2 and CDR3 of the light chain (limits as in the source). Parent: KSSQSVLYESRNKNSVA, WASTRES, QQYHRLPLS.
All variants listed here change Q95 of the VL, counted from its first residue.
Kd is apparent (estimated from mating counts) and averaged on the log scale over replicates with a signal. Smaller is tighter.
Where no diploid with the target was found in any replicate, the entry reads "no signal": below detection, most likely a poor binder, though not proof of it.
Entries are sorted by rising average, undetected variants last.

With KSSQSVDYESRNKNSVA / WASTRES / MQYHRLLLS the result was 3.3 nM (3 of 3 replicates). Variant KSSQSVLYESRNKNSVA / WASTREP / LQYARLPLS gave 14 nM (3 of 3 replicates). With KSAQSVLYESRNKNSVA / WASTRES / EQAHRLPLS the result was 22 nM (3 of 3 replicates). With KSSQSVTYESRNKNSVA / WASTRES / NWYHRLPLS the result was 170 nM (3 of 3 replicates). Variant KSPQSVLYESRNKNSVA / WASTRES / AQYHRLPLH showed 630 nM (3 of 3 replicates). Variant KSSQSVLYESMNKNSVA / WASTRES / NQYHRLPKS showed 690 nM (3 of 3 replicates). With CSSQSVLYESRNKNSVA / WASTRES / YQYHRLPHS the result was 900 nM (3 of 3 replicates). Variant KSSKSVLYESRNKNSVA / WASTRES / SQYHNLPLS showed 1.4 µM (3 of 3 replicates). For KSSQSVLYESRNKNSVA / WASERES / DQYHRQPLS, the assay gave 1.5 µM (1 of 3 replicates).

For KSSQSVLYEERNKNSVA / WASMRES / GQYHRLPLS, the assay gave 5.2 µM (3 of 3 replicates). For KSSQSVRYESRNKNSVA / WASTRES / TQYHRLPLS, the assay gave 7.8 µM (2 of 3 replicates). For KSSQSVLYESRNKPSVA / WASTRES / SQYHRLPLI, the assay gave 7.9 µM (1 of 3 replicates). Variant SSSQSVLYESRNKNSVA / WASTQES / HQYHRLPLS showed 8.4 µM (2 of 3 replicates). Variant ESSQSVLYESRNKNDVA / WASTRES / RQYHRLPLS gave 12 µM (1 of 3 replicates). Variant KSSQSVLYESRNKNSVA / WASTREF / YQGHRLPLS showed 12 µM (2 of 3 replicates). For KSSASVLYESRNKNSVA / WASTRES / PVYHRLPLS, the assay gave 19 µM (1 of 3 replicates). Variant KSSQSVLYWSRNKNSVA / WASTAES / RQYHRLPLS showed 27 µM (2 of 3 replicates). Variant KSSQSVLYESRNKNSVA / NAFTRES / FQYHRLPLS showed 58 µM (2 of 3 replicates).

With KSSQSVLYESRNKNSVA / WASTRES / TQYHWLPLF the result was 66 µM (2 of 3 replicates). With KSSQSVLYESRNKESVA / WASTPES / LQYHRLPLS the result was 120 µM (2 of 3 replicates). Variant KSSQSVLNESRNKNSVA / WASTRES / NQNHRLPLS gave no signal (0 of 3 replicates). For KSSQSVLYESRIKNSVA / WASTAES / HQYHRLPLS, the assay gave no signal (0 of 3 replicates). Variant KSSFSVLYESRNKNSVA / WASTREC / VQYHRLPLS showed no signal (0 of 3 replicates). With KSSQSVKYESRSKNSVA / WASTRES / MQYHRLPLS the result was no signal (0 of 3 replicates). For KSDQSVDYESRNKNSVA / WASTRES / KQYHRLPLS, the assay gave no signal (0 of 3 replicates). With KSSQSVLYESRNKVSVA / WMSTRES / HQYHRLPLS the result was no signal (0 of 3 replicates). For KSEQSVLYESRNKNKVA / WASTRES / CQYHRLPLS, the assay gave no signal (0 of 3 replicates).

For KSSQEVLYESRNKNSVA / WASTRES / FQYHRLPLS, the assay gave no signal (0 of 3 replicates). With KSSQSVLYEARNKNSWA / WASTRES / TQYHRLPLS the result was no signal (0 of 3 replicates). For KSSQSVLYESRNKNSVA / WASTRES / MQQHRLPLS, the assay gave no signal (0 of 3 replicates). Variant KSSQSVLYESRNKNSVA / WASTNES / GQYHREPLS gave no signal (0 of 3 replicates). For KSGQSVLYESRNKNSVA / WASTRES / YTYHRLPLS, the assay gave no signal (0 of 3 replicates). Variant KSSQWVLYEERNKNSVA / WASTRES / WQYHRLPLS showed no signal (0 of 3 replicates).

From the list, the first 5 with no signal in any replicate:

| CDR-L1 | CDR-L2 | CDR-L3 | Kd (apparent) | replicates with signal |
|---|---|---|---|---|
| KSSQSVLNESRNKNSVA | WASTRES | NQNHRLPLS | no signal | 0 of 3 |
| KSSQSVLYESRIKNSVA | WASTAES | HQYHRLPLS | no signal | 0 of 3 |
| KSSFSVLYESRNKNSVA | WASTREC | VQYHRLPLS | no signal | 0 of 3 |
| KSSQSVKYESRSKNSVA | WASTRES | MQYHRLPLS | no signal | 0 of 3 |
| KSDQSVDYESRNKNSVA | WASTRES | KQYHRLPLS | no signal | 0 of 3 |

As a blank, each scFv also met three strains without target: over library AAYL50, 18% of these pairings were detected, typically at 15 µM and seldom below 970 nM.
For reference, the parent read 4.4 nM as the reference entry and 48 nM as a member of this library.